This is an account of results in US9682141B2, “Combination of kinase inhibitors and uses thereof” (INTELLIKINE LLC, priority 2011, dated 2017).

Protein sequences, listed by entry. Tags and fused reporters are not part of them. Lines headed by an entry give the natural chain unless they say otherwise; changes in a name come on top.
UniProt P42336, whole entry: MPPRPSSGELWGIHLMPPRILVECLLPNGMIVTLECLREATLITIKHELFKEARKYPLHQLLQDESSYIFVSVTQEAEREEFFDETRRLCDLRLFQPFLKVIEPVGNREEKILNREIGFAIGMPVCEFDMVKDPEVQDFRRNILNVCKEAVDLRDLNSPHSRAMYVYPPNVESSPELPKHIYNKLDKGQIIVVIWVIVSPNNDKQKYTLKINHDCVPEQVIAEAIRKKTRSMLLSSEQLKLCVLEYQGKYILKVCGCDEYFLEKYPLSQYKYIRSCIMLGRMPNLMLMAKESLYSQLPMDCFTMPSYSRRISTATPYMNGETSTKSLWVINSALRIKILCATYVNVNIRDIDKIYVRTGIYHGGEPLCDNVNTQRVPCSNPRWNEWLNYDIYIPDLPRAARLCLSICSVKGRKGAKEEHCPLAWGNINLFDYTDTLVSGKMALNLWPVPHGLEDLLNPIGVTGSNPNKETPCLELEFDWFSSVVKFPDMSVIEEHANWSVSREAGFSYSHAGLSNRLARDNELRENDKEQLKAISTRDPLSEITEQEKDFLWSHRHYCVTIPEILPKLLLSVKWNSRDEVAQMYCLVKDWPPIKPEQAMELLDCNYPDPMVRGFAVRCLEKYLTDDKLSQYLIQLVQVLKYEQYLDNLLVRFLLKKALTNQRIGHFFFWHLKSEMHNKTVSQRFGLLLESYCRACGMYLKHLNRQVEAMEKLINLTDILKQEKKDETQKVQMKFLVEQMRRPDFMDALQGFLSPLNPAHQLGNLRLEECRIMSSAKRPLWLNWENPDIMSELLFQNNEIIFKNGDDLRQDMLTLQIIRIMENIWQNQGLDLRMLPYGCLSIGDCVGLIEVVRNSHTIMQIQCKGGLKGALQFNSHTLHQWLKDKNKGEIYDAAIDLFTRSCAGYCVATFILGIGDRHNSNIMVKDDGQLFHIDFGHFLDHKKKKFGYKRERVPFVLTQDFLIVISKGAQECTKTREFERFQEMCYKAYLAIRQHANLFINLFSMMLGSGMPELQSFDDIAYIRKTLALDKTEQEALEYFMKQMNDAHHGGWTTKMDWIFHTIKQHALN
UniProt O00329: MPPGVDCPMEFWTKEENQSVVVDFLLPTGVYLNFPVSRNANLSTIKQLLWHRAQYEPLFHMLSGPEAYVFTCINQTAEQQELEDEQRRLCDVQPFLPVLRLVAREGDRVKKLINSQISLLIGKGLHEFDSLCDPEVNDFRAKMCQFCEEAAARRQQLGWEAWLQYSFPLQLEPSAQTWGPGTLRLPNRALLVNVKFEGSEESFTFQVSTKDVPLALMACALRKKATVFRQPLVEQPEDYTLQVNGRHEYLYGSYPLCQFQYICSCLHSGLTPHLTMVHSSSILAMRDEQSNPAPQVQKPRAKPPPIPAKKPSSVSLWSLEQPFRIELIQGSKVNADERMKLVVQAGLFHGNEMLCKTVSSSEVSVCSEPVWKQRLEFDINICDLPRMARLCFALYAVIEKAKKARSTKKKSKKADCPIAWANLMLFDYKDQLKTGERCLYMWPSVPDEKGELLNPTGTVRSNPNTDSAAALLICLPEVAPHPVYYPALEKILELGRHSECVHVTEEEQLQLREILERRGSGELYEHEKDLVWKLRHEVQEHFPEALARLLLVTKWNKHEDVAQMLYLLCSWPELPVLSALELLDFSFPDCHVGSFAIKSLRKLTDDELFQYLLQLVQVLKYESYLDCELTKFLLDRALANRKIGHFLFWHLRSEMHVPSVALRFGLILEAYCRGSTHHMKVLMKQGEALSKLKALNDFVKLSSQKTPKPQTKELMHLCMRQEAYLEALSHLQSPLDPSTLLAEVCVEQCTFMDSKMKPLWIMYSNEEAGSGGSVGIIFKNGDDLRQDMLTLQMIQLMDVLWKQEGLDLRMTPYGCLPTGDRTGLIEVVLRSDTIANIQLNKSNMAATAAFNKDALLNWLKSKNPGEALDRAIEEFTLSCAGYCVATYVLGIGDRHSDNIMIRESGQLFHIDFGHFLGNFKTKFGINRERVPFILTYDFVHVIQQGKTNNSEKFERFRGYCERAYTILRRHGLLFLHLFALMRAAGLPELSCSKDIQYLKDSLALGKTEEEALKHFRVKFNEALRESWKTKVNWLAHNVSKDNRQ

In one assay the target is PI3K α (Homo sapiens (Human), UniProt P42336). Put plainly: PI 3-Kinase (human) HTRF assay, p110α/p85α. Type of assay: biochemical. (In general: TR-FRET usually uses a lanthanide donor and a delayed reading to cut background.)
A further assay has as its target PI3K δ (Homo sapiens (Human), UniProt O00329). Put plainly: PI 3-Kinase (human) HTRF assay, p110δ/p85α. Type of assay: biochemical.

For the compound `Nc1nc2cc(-c3ccc4ncc(C(=O)N[C@H]5CC[C@H](O)CC5)n4c3)ccc2o1`, the IC50 against PI3K α and against PI3K δ was under 0.1 µM in each case.

By IC50 is commonly meant the concentration that gives 50% inhibition. The low end stands for higher potency, the high end for lower potency.
